Bioassay records (PubChem)
Nrf2 activator: activates Nrf2 signaling | AREc32 ARE-luciferase reporter (MCF7-derived line), luminescence, 24 h | Potency, µM (series often up to 46.1 µM), without a hit: top-dose activation, usual class: activators | actives 0.31% (n = 410,000) | AID 624171; further: potency means the concentration at half of the fitted maximal effect; % of control where 0% means no effect; nearly all actives have a fitted effect of over 65% in size
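Luciferase luminescence (Steady-Glo, 30 min at room temperature) served as the read-out of ARE activation in AREc32 cells treated with compounds for 24 hr at 37 deg C.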
IL-2 act: activates IL-2 in a cell-based reporter assay. AID 652025. actives 0.065% (n = 360,000). IL-2 activation reporter assay, cell-based qHTS; stimulated with anti-CD3/CD4/CD28 beads; in transgenic mouse T cells. activation, % (series mostly up to about 46 µM); in the data active means activation above about 50%; inconclusive means mostly about 30% to 49%; further: 0% is about no effect
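Unstimulated transgenic mouse T cells; 60-min compound exposure; bead-based TCR/CD4/CD28 stimulation; 18 h culture, 37 degrees C; dual fluorescence (EGFP, DsRed) plate cytometry.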
A549 viability: counter-screen for Nrf2 inhibitors: cytotoxicity in A549 cells; A549 ARE-Fluc cells, CellTiter-Fluor viability, 18-24 h; Potency, µM (highest dose often 46 µM), for inactives: at the top dose activity change, negative = cytotoxicity, usual class: inhibitors; actives 0.16% (n = 390,000); AID 504648; further: potency means the concentration at half of the fitted maximal effect; on the % scale 0 is the no-effect control and ±100 the full control effect
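A549 ARE-Fluc cells in 5% FBS OPTI-MEM, 5000 cells/well, rested 2 h then exposed to compounds in concentration-response for 18-24 h at 37 °C. Viability by CellTiter-Fluor fluorescence (Ex 405/Em 525) after 30 min; luciferase luminescence (BugLite, 15 min, RT) read afterwards.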
miR-21 reporter: miR-21 reporter, rising signal | HeLa miR-21 FLuc reporter, luciferase, 48 h | Potency, µM (highest dose often 38.3 µM), for inactives: at the top dose reporter change, positive = more light | 340,000 tested, under 10 active | AID 2288; active = well fitted rising curve with a large enough effect; inconclusive = small, poorly fitted or top-dose-only effect; inactive = no such curve, though single readings can be large or run the other way;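 further: % of control where 0% means no effect; miR-21 action dims this reporter so a rising signal means less miR-21 action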
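HeLa miR-21-FLuc reporter line, endogenous miR-21; 2000 cells/well in DMEM/10% FBS; compound titration up to ~40uM final, 48 h, 37 degree Celsius; luciferase detection reagent, 15 min lysis, CCD luminescence.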
ClpP mod: qHTS Assay for Activators of ClpP. purified B. subtilis ClpP, FRET peptide cleavage, 20 min. Potency, µM (top dose mostly 57.5 µM), inactives show at the top dose activity change, negative = active. actives 1.9% (n = 340,000). AID 651965, 2013; active means well fitted falling curve with a large enough effect; inconclusive means small, poorly fitted or top-dose-only effect; inactive means no such curve, though single readings can be large or run the other way; further: potency means the concentration at half of the fitted maximal effect; the source files actives as falling curves though it sought activators and does not explain the sign; nearly all actives have a fitted effect of over 65% in size
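FRET quenching reversal measured ClpP activation: 10 microg/mL B. subtilis ClpP at pH 8 with the FRET-FV decapeptide, read at 430 nm after 320 nm excitation. The 20-min minus 0-min signal was scaled between DMSO/no-enzyme wells and ADEP (5.8 microM final).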
Nrf2 block: blocks Nrf2 signaling | A549 ARE-Fluc reporter, luciferase luminescence, 18-24 h | actives 2.1% (n = 360,000) | AID 504444 | Potency, µM (doses to about 46 µM), inactives show at the highest dose activity change, negative = inhibition, usual class: inhibitors; further: potency means the concentration at half of the fitted maximal effect; on the % scale 0 is the no-effect control and ±100 the full control effect; nearly all actives have a fitted effect of over 60% in size
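Nrf2 activity is the BugLite luminescence, read 15 min after reagent at room temperature, following CellTiter-Fluor cytotoxicity readout (30 min, 37C). Compound titrations were applied for 18-24 h to 5000 A549 ARE_Fluc cells/well in 5% FBS OPTI-MEM.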
An asterisk follows results filed as active; ? = inconclusive; / = not tested or not shown. Hits are enriched below; roughly 3.7% of the tested compounds scored in any of these assays. Unless noted, the call rests on the fitted dose curve; in most records, active means well fitted curve in the direction sought with a large enough effect; inconclusive means small, poorly fitted or top-dose-only effect, or another doubt; inactive means no such curve, though single readings can be large; an effect the other way counts as inactive or inconclusive.

Value order: Nrf2 activator, Nrf2 block, ClpP mod, A549 viability, IL-2 act, miR-21 reporter
1. CN(c1ccccc1)S(=O)(=O)c1cccc(NC(=O)c2ccc(=O)[nH]n2)c1
  0.4%, ?, 25.1µM*, -6.4%, -0.3, /
2. O=C(N/N=C/c1ccc(O)cc1O)c1ccc(CN2C(=O)c3cccc4cccc2c34)cc1
  0.2%, 9.2µM*, /, ?, -1.1, 14.4%
3. O=C(N/N=C/c1ccccc1)c1ccc(CN2C(=O)c3cccc4cccc2c34)cc1
  0.9%, -8.0%, -5.2%, 14.2%, -3.1, -10.4%
4. CCOC(=O)c1cccc(NC(=O)Cn2c(=O)nc(-c3ccccc3F)c3cc(Cl)ccc32)c1
  4.8%, /, -10.4%, ?, /, -2.2%
5. CCc1ccc(NC(=O)Cn2nnc(-c3ccccc3N)n2)cc1
  3.7%, 4.2%, -1.1%, 2.6%, /, -1.2%
6. CCOc1ccc(C2C(=O)N(C3CCCCCC3)CC(=O)N2CCc2ccc(OC)c(OC)c2)cc1OC (stereo not drawn)
  0.5%, /, 1.4%, -1.4%, /, -4.4%
7. CC1Cn2c(nc3sc4c(c3c2=O)CCC4)N1CCO (stereo not drawn)
  0.2%, 0.1%, 17.8µM*, -2.2%, 0.2, -15.5%
8. O=C(Nc1ccc(F)cc1F)c1noc2c1CCc1ccccc1-2
  14.4%, ?, -15.7%, 4.7%, /, -45.4%
9. CC(C)CC(COCc1ccc(C(F)(F)F)cc1)N1CCN(C(=O)c2ccc(C(F)(F)F)cc2)CCC1=O (stereo not drawn)
  -3.3%, 23.1µM*, -0.6%, ?, -2.2, 7.5%
10. CC(C)C[C@@H](COCc1ccc(C(F)(F)F)cc1)N1CCN(C(=O)c2ccc(C(F)(F)F)cc2)CCC1=O
  1.5%, /, 4.3%, /, -1.1, /
11. O=C(c1ccc(Cl)c(Cl)c1)N1CCC(=O)N(C(COCc2cccc(C(F)(F)F)c2)Cc2ccccc2)CC1 (stereo not drawn)
  -3.5%, 20.6µM*, -3.1%, ?, -0.6, 1.6%
12. Cc1cccc(COCC(Cc2ccccc2)N2CCN(C(=O)c3ccc(Cl)c(Cl)c3)CCC2=O)c1 (stereo not drawn)
  0.3%, -13.0%, -1.6%, -4.3%, -0.8, -1.0%
13. Cc1nc2c(=O)n(C)c(=O)n(C)c2nc1Cl
  ?, 18.4µM*, 0.2%, ?, -5.1, ?
14. CCN(CC)c1ccc2nc3c(=O)n(C)c(=O)n(C)c3nc2c1
  4.6%, -6.0%, 0.1%, -12.9%, /, -6.5%
15. O=C(CSc1ccc(Cl)cc1)N1CCN(c2ncc(C(F)(F)F)cc2Cl)CC1
  0.2%, 20.6µM*, -4.1%, -15.2%, -0.7, -7.1%
16. O=C(OCCN1CCN(c2ncc(C(F)(F)F)cc2Cl)CC1)c1ccc(F)cc1
  0.4%, 9.4%, 1.9%, 1.3%, -0.3, -0.2%
17. Cc1ccc(C(=O)OCCN2CCN(c3ncc(C(F)(F)F)cc3Cl)CC2)cc1
  0.1%, -18.7%, 14.1µM*, -9.9%, -0.1, -4.1%
18. O=C(CSc1ncc(C(F)(F)F)cc1Cl)N1CCN(S(=O)(=O)c2ccc(Cl)cc2)CC1
  -0.9%, ?, 0.5%, 2.9%, 0.2, 21.5%
19. COc1ccc(-n2cc(-c3ccccc3)c3c(Nc4ccc(OC)c(OC)c4)ncnc32)cc1
  -1.3%, /, ?, -11.5%, /, -6.1%
20. O=C(Nc1ccccc1F)N(CCCN1CCOCC1)Cc1cc2cc3c(cc2[nH]c1=O)OCCO3
  2.6%, ?, 20µM*, -4.2%, 0.1, -7.1%
21. CCN(CC)CCCN(Cc1cc2cc3c(cc2[nH]c1=O)OCCO3)C(=O)Nc1ccccc1
  3.5%, 11.4%, 20µM*, -5.7%, 0.3, -16.1%
22. CCc1ccc2[nH]c(=O)c(CN(CCCN3CCOCC3)C(=O)Nc3ccccc3)cc2c1
  5.1%, 6.8%, -6.8%, -10.9%, -0.1, 18.9%
23. COc1ccc2[nH]c(=O)c(CN(CCCN3CCOCC3)C(=O)NCc3ccccc3)cc2c1
  -0.2%, 0.2%, 15.8µM*, 0.5%, -0.2, -7.9%
24. O=C(Nc1ccccc1)N(CCCN1CCOCC1)Cc1cc2cc3c(cc2[nH]c1=O)OCCO3
  2.2%, -3.8%, 31.6µM*, -5.9%, 0.2, 4.8%
25. CCOc1ccc(-c2cc(NC(=O)Nc3ccc(Cl)cc3)c(C(=O)OC)s2)cc1
  1.0%, ?, ?, -1.6%, /, -18.3%
26. CCOc1ccc(NC(=O)COC(=O)c2ccccc2OCc2ccccc2Br)cc1
  /, /, -14.1%, /, /, /
27. Nc1ccc(C(=O)N2CCN(S(=O)(=O)c3ccc4c(c3)OCCCO4)CC2)cc1[N+](=O)[O-]
  0.7%, 25.9µM*, -2.9%, ?, -0.8, /
28. COc1ccc2[nH]cc(S(=O)(=O)c3ccc(C)c(C)c3)c(=O)c2c1
  -1.3%, -8.7%, -4.0%, 2.0%, /, -0.7%
29. O=C(Nc1ccc(OC(F)(F)C(F)F)c(NC(=O)c2ccc(F)cc2)c1)c1ccc(F)cc1
  1.9%, 7.9%, -0.9%, -6.7%, -1.6, /
30. Nc1ccc(C(=O)Nc2ccc(OC(F)(F)C(F)F)c(NC(=O)c3ccc(N)cc3)c2)cc1
  0.3%, -8.1%, 15.8µM*, -8.0%, -4.3, -6.7%

Shown with one line to a screen: two of the compounds above
[19] COc1ccc(-n2cc(-c3ccccc3)c3c(Nc4ccc(OC)c(OC)c4)ncnc32)cc1
[20] O=C(Nc1ccccc1F)N(CCCN1CCOCC1)Cc1cc2cc3c(cc2[nH]c1=O)OCCO3
Assay by compound	19	20
Nrf2 activator	-1.3%	2.6%
Nrf2 block	/	?
ClpP mod	?	20µM*
A549 viability	-11.5%	-4.2%
IL-2 act	/	0.1
miR-21 reporter	-6.1%	-7.1%

New compounds follow
Value order: Nrf2 activator, Nrf2 block, ClpP mod, A549 viability, IL-2 act, miR-21 reporter
31. COc1ccc(C(=O)NNc2ncnc3c2cnn3-c2ccc(C)c(Cl)c2)cc1
  -0.7%, /, 1.1%, 0.7%, /, -45.2%
32. N#Cc1ccc(NC(=O)COCc2cc(-c3ccco3)on2)cc1
  ?, ?, -0.4%, 5.7%, /, 1.7%
33. COc1cc2c(cc1OC)C(c1cc3cc(OC)c(OC)cc3[nH]c1=O)N(C(=O)C1CC1)CC2 (stereo not drawn)
  -0.3%, 5.2%, 28.2µM*, -0.7%, -1.4, -16.0%
34. CCCC(=O)N1CCc2cc(OC)c(OC)cc2C1c1cc2cc3c(cc2[nH]c1=O)OCO3 (stereo not drawn)
  0.3%, -2.3%, ?, 3.1%, -2.8, /
35. Cc1c(C#N)c2ncnc(-c3ccccc3)c2n1-c1ccccc1
  0.1%, ?, 35.5µM*, /, -2.7, -8.9%
36. N#Cc1c2n(c3c(-c4ccccc4)ncnc13)CCC2
  0.1%, /, 31.6µM*, -1.4%, -0.1, -11.9%
37. O=C(Nc1nnc(SCc2cc(=O)n3cc(Cl)ccc3n2)s1)c1cccc(F)c1
  5.9%, /, -7.9%, -1.4%, /, -3.5%
38. Cc1cc(=O)oc2cc(OCc3nnc(-c4ccccc4Br)o3)ccc12
  -0.4%, -17.9%, 28.2µM*, -15.9%, -1.9, -15.3%
39. O=C(COc1ccc2c(-c3ccccc3)cc(=O)oc2c1)Nc1ccc(CCO)cc1
  3.1%, 10.3µM*, -29.0%, -8.7%, -0.1, 14.0%
40. Cc1cc(=O)oc2cc(Oc3ncccn3)ccc12
  5.2%, -10.1%, 31.6µM*, -16.2%, -0.4, -11.8%
41. CN(C(=O)C(C)(C)C)c1ccc(OCC(=O)N2CCc3ccccc3C2)cc1
  1.9%, 10.3µM*, /, -1.1%, -0.7, 24.2%

Grouped by structure: the entries above containing a cyano group.
Value order: Nrf2 activator, Nrf2 block, ClpP mod, A549 viability, IL-2 act, miR-21 reporter
32. N#Cc1ccc(NC(=O)COCc2cc(-c3ccco3)on2)cc1
  ?, ?, -0.4%, 5.7%, /, 1.7%
35. Cc1c(C#N)c2ncnc(-c3ccccc3)c2n1-c1ccccc1
  0.1%, ?, 35.5µM*, /, -2.7, -8.9%
36. N#Cc1c2n(c3c(-c4ccccc4)ncnc13)CCC2
  0.1%, /, 31.6µM*, -1.4%, -0.1, -11.9%
